Data as given in patent US20130096170A1 (priority 2011, published 2013).
“And” between values parts separate entries of the source, which are not always exact repeats. Equal values may be shown once. Read-outs that look alike come from different tables or passages of the source.

Tests used:
[1] = tested on: initially intubated and mechanically ventilated neonates ≥28 to ≤44 weeks gestational age
[2] = tested on: initially intubated and mechanically ventilated pediatric subjects 1 month to <17 years

SMILES: Cc1cccc([C@H](C)c2cnc[nH]2)c1C [dexmedetomidine]
- subjects who received rescue medication for analgesia during infusion ([1]; age Group I, dose level 1 (0.05 μg/kg + 0.05 μg/kg/hr)): 16.7%
- subjects who required rescue medication for analgesia ([1]; age Group I, dose level 1 (original 30 patients)): 1 subjects
- subjects who received rescue medication for analgesia during infusion ([1]; age Group I, dose level 2 (additional cohort)): 16.7%
- subjects who required rescue medication for analgesia ([1]; age Group I, dose levels 1 and 2): 2 subjects
- subjects who received rescue medication for analgesia during infusion ([1]; age Group II (term neonates)): 58.3%
- subjects who required rescue medication for analgesia ([1]; age Group II (term neonates)): 14 subjects
- subjects who received rescue midazolam for sedation during infusion ([1]; age Group II (≥36 to ≤44 wk GA)): 16.7%
- mean dose of rescue midazolam ([1]; age Group II subjects given rescue midazolam): 0.22 mg/kg and 0.22 ± 0.26 mg/kg
- effectiveness at sedating ([1]; critically ill, intubated, mechanically ventilated premature infants ≥28 to <36 weeks (age Group I)): effective
- patients who received rescue morphine ([1]; in vivo): 21%
- subjects requiring rescue midazolam or morphine during infusion ([1]; in vivo): None
- subjects not requiring rescue midazolam for sedation while intubated (target UMSS 1-3) ([2]; Group 1 low dose, all diagnoses, age groups combined, ASA P1, P2): 13 (44.8) n (%)
- subjects not requiring rescue midazolam for sedation while intubated (target UMSS 1-3) ([2]; Group 1 low dose, all diagnoses, age groups combined, ASA P3, P4): 24 (44.4) n (%)
- subjects not requiring rescue midazolam for sedation while intubated (target UMSS 1-3) ([2]; Group 1 low dose, all diagnoses, age groups combined, total ASA class): 37 (44.6) n (%)
- subjects not requiring rescue midazolam for sedation while intubated (target UMSS 1-3) ([2]; Group 1 low dose, other diagnoses, age groups combined, ASA P1, P2): 12 (57.1) n (%)
- subjects not requiring rescue midazolam for sedation while intubated (target UMSS 1-3) ([2]; Group 1 low dose, other diagnoses, age groups combined, ASA P3, P4): 16 (55.2) n (%)
- subjects not requiring rescue midazolam for sedation while intubated (target UMSS 1-3) ([2]; Group 1 low dose, other diagnoses, age groups combined, total ASA class): 28 (56.0) n (%)
- subjects not requiring rescue midazolam for sedation while intubated (target UMSS 1-3) ([2]; Group 1 low dose, s/p CPB, Age Group II (24 mo-<17 y), ASA P1, P2): 0/2
- subjects not requiring rescue midazolam for sedation while intubated (target UMSS 1-3) ([2]; Group 1 low dose, s/p CPB, age groups combined, ASA P1, P2): 1 (12.5) n (%)
- subjects not requiring rescue midazolam for sedation while intubated (target UMSS 1-3) ([2]; Group 1 low dose, s/p CPB, age groups combined, ASA P3, P4): 8 (32.0) n (%)
- subjects not requiring rescue midazolam for sedation while intubated (target UMSS 1-3) ([2]; Group 1 low dose, s/p CPB, age groups combined, total ASA class): 9 (27.3) n (%)
- subjects not requiring rescue midazolam for sedation while intubated (target UMSS 1-3) ([2]; Group 2 high dose, all diagnoses, age groups combined, ASA P1, P2): 10 (47.6) n (%)
- subjects not requiring rescue midazolam for sedation while intubated (target UMSS 1-3) ([2]; Group 2 high dose, all diagnoses, age groups combined, ASA P3, P4): 34 (56.7) n (%)
- subjects not requiring rescue midazolam for sedation while intubated (target UMSS 1-3) ([2]; Group 2 high dose, all diagnoses, age groups combined, total ASA class): 44 (54.3) n (%)
- subjects not requiring rescue midazolam for sedation while intubated (target UMSS 1-3) ([2]; Group 2 high dose, other diagnoses, age groups combined, ASA P1, P2): 9 (56.3) n (%)
- subjects not requiring rescue midazolam for sedation while intubated (target UMSS 1-3) ([2]; Group 2 high dose, other diagnoses, age groups combined, ASA P3, P4): 18 (58.1) n (%)
- subjects not requiring rescue midazolam for sedation while intubated (target UMSS 1-3) ([2]; Group 2 high dose, other diagnoses, age groups combined, total ASA class): 27 (57.4) n (%)
- subjects not requiring rescue midazolam for sedation while intubated (target UMSS 1-3) ([2]; Group 2 high dose, s/p CPB, Age Group II (24 mo-<17 y), ASA P1, P2): 0/2
- subjects not requiring rescue midazolam for sedation while intubated (target UMSS 1-3) ([2]; Group 2 high dose, s/p CPB, age groups combined, ASA P1, P2): 1 (20.0) n (%)
- subjects not requiring rescue midazolam for sedation while intubated (target UMSS 1-3) ([2]; Group 2 high dose, s/p CPB, age groups combined, ASA P3, P4): 16 (55.2) n (%)
- subjects not requiring rescue midazolam for sedation while intubated (target UMSS 1-3) ([2]; Group 2 high dose, s/p CPB, age groups combined, total ASA class): 17 (50.0) n (%)
- difference (Group 1 − 2) in % of subjects not requiring rescue midazolam ([2]; all diagnoses, Age Group I (1-<24 mo), ASA P1, P2): −5.96
- difference (Group 1 − 2) in % of subjects not requiring rescue midazolam ([2]; all diagnoses, Age Group I (1-<24 mo), ASA P3, P4): −11.55
- difference (Group 1 − 2) in % of subjects not requiring rescue midazolam ([2]; all diagnoses, Age Group I (1-<24 mo), total ASA class): −9.71
- difference (Group 1 − 2) in % of subjects not requiring rescue midazolam ([2]; all diagnoses, Age Group II (24 mo-<17 y), ASA P1, P2): 6.67
- difference (Group 1 − 2) in % of subjects not requiring rescue midazolam ([2]; all diagnoses, Age Group II (24 mo-<17 y), ASA P3, P4): −13.16
- difference (Group 1 − 2) in % of subjects not requiring rescue midazolam ([2]; all diagnoses, Age Group II (24 mo-<17 y), total ASA class): −9.85
- difference (Group 1 − 2) in % of subjects not requiring rescue midazolam ([2]; all diagnoses, age groups combined, ASA P1, P2): −2.79
- difference (Group 1 − 2) in % of subjects not requiring rescue midazolam ([2]; all diagnoses, age groups combined, ASA P3, P4): −12.22
- difference (Group 1 − 2) in % of subjects not requiring rescue midazolam ([2]; all diagnoses, age groups combined, total ASA class): −9.74
- effectiveness at sedating ([2]; critically ill, initially intubated infants and children after cardiac surgery with CPB and non-cardiac surgery): clinically effective
- median amount of rescue midazolam per kg ([2]; high dose): 0.179 mg/kg
- median time from start of infusion to first dose of rescue medication ([2]; high dose): 2.0 h
- median time to successful extubation ([2]; high dose): 20.5 h
- subjects who required rescue midazolam for sedation ([2]; high dose, age groups combined (37/81)): 45.7%
- subjects not requiring rescue midazolam, number and percent of column N ([2]; high dose, other Dx, Age Group I (1-<24 mo), ASA P1, P2, N = 16): 7 (43.8) n (%)
- subjects not requiring rescue midazolam, number and percent of column N ([2]; high dose, other Dx, Age Group I (1-<24 mo), ASA P3, P4, N = 31): 13 (41.9) n (%)
- subjects not requiring rescue midazolam, number and percent of column N ([2]; high dose, other Dx, Age Group I (1-<24 mo), total ASA class, N = 47): 20 (42.6) n (%)
- subjects not requiring rescue midazolam, number and percent of column N ([2]; high dose, other Dx, Age Group II (24 mo-<17 y), ASA P1, P2, N = 16): 2 (12.5) n (%)
- subjects not requiring rescue midazolam, number and percent of column N ([2]; high dose, other Dx, Age Group II (24 mo-<17 y), ASA P3, P4, N = 31): 5 (16.1) n (%)
- subjects not requiring rescue midazolam, number and percent of column N ([2]; high dose, other Dx, Age Group II (24 mo-<17 y), total ASA class, N = 47): 7 (14.9) n (%)
- subjects not requiring rescue midazolam, number and percent of column N ([2]; high dose, s/p CPB, Age Group I (1-<24 mo), ASA P1, P2, N = 5): 1 (20.0) n (%)
- subjects not requiring rescue midazolam, number and percent of column N ([2]; high dose, s/p CPB, Age Group I (1-<24 mo), ASA P3, P4, N = 29): 9 (31.0) n (%)
- subjects not requiring rescue midazolam, number and percent of column N ([2]; high dose, s/p CPB, Age Group I (1-<24 mo), total ASA class, N = 34): 10 (29.4) n (%)
- subjects not requiring rescue midazolam, number and percent of column N ([2]; high dose, s/p CPB, Age Group II (24 mo-<17 y), ASA P1, P2, N = 5): 0 n (%)
- subjects not requiring rescue midazolam, number and percent of column N ([2]; high dose, s/p CPB, Age Group II (24 mo-<17 y), ASA P3, P4, N = 29): 7 (24.1) n (%)
- subjects not requiring rescue midazolam, number and percent of column N ([2]; high dose, s/p CPB, Age Group II (24 mo-<17 y), total ASA class, N = 34): 7 (20.6) n (%)
- median total amount of rescue midazolam while intubated ([2]; high dose, subjects that required rescue): 2.00 mg
- subjects not requiring rescue midazolam, number and percent of column N ([2]; high dose, total, Age Group I (1-<24 mo), ASA P1, P2, N = 21): 8 (38.1) n (%)
- subjects not requiring rescue midazolam, number and percent of column N ([2]; high dose, total, Age Group I (1-<24 mo), ASA P3, P4, N = 60): 22 (36.7) n (%)
- subjects not requiring rescue midazolam, number and percent of column N ([2]; high dose, total, Age Group I (1-<24 mo), total ASA class, N = 81): 30 (37.0) n (%)
- subjects not requiring rescue midazolam, number and percent of column N ([2]; high dose, total, Age Group II (24 mo-<17 y), ASA P1, P2, N = 21): 2 (9.5) n (%)
- subjects not requiring rescue midazolam, number and percent of column N ([2]; high dose, total, Age Group II (24 mo-<17 y), ASA P3, P4, N = 60): 12 (20.0) n (%)
- subjects not requiring rescue midazolam, number and percent of column N ([2]; high dose, total, Age Group II (24 mo-<17 y), total ASA class, N = 81): 14 (17.3) n (%)
- median amount of rescue morphine per kg ([2]; human, in vivo): 0.20 mg/kg and 0.17 mg/kg
- median total amount of rescue morphine ([2]; human, in vivo): 1.80 mg and 1.63 mg
- subjects who received rescue morphine for analgesia while intubated ([2]; human, in vivo): 42.2% and 39.5%
- median amount of rescue midazolam per kg ([2]; low dose): 0.266 mg/kg
- median time from start of infusion to first dose of rescue medication ([2]; low dose): 1.6 h
- median time to successful extubation ([2]; low dose): 23.8 h
- subjects who required rescue midazolam for sedation ([2]; low dose, age groups combined (46/83)): 55.4%
- subjects not requiring rescue midazolam, number and percent of column N ([2]; low dose, other Dx, Age Group I (1-<24 mo), ASA P1, P2, N = 21): 8 (38.1) n (%)
- subjects not requiring rescue midazolam, number and percent of column N ([2]; low dose, other Dx, Age Group I (1-<24 mo), ASA P3, P4, N = 29): 12 (41.4) n (%)
- subjects not requiring rescue midazolam, number and percent of column N ([2]; low dose, other Dx, Age Group I (1-<24 mo), total ASA class, N = 50): 20 (40.0) n (%)
- subjects not requiring rescue midazolam, number and percent of column N ([2]; low dose, other Dx, Age Group II (24 mo-<17 y), ASA P1, P2, N = 21): 4 (19.0) n (%)
- subjects not requiring rescue midazolam, number and percent of column N ([2]; low dose, other Dx, Age Group II (24 mo-<17 y), ASA P3, P4, N = 29): 4 (13.8) n (%)
- subjects not requiring rescue midazolam, number and percent of column N ([2]; low dose, other Dx, Age Group II (24 mo-<17 y), total ASA class, N = 50): 8 (16.0) n (%)
- subjects not requiring rescue midazolam, number and percent of column N ([2]; low dose, s/p CPB, Age Group I (1-<24 mo), ASA P1, P2, N = 8): 1 (12.5) n (%)
- subjects not requiring rescue midazolam, number and percent of column N ([2]; low dose, s/p CPB, Age Group I (1-<24 mo), ASA P3, P4, N = 25): 4 (16.0) n (%)
- subjects not requiring rescue midazolam, number and percent of column N ([2]; low dose, s/p CPB, Age Group I (1-<24 mo), total ASA class, N = 33): 5 (15.2) n (%)
- subjects not requiring rescue midazolam, number and percent of column N ([2]; low dose, s/p CPB, Age Group II (24 mo-<17 y), ASA P1, P2, N = 8): 0 n (%)
